# In PubChem BioAssay AID504891 (National Center for Advancing Translational Sciences (NCATS), 2011):
# Sequences of proteins named here, by UniProt entry; tags and fusion partners are left off.
# UniProt Q13526, whole entry, looked up: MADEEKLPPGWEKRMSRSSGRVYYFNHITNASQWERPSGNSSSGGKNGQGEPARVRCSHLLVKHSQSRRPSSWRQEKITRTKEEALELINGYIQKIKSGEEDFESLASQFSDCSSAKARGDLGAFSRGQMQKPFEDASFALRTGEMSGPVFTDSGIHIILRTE
# Only a part is listed here, and it is no random draw. Results filed as inconclusive are left out. Active and inactive are the calls of the source. Calls come from the whole dose curve; as a rule, active = well fitted inhibition curve with a large enough effect in the polarisation, with a control signal flat (not every such curve was filed as active); inconclusive = small, poorly fitted or top-dose-only effect, or effect the other way, or a change in a side signal; inactive = no such curve, though single readings can be large or run the other way; the % refers to the polarisation.
# Target: Peptidyl-prolyl cis-trans isomerase NIMA-interacting 1 (Homo sapiens) (UniProt Q13526)
# Assay: qHTS Assay to Find Inhibitors of Pin1
# Conditions: Pin1 FP peptide displacement, HiFluor488, 10 min; at 115 µM (top of the series)
# % is set by controls: 0 for no effect and ±100 for the full control effect.
row,Compound,"activity, negative = inhibition"
1,O=P1(Nc2ncccn2)COc2ccccc2OC1,inactive: -0.868%
2,CN(C)C1(CNC(=O)c2ccc(S(C)(=O)=O)cc2)CCCCC1,inactive: 1.93%
3,O=C(/C=C/c1ccccc1)OC1CN2CCC1CC2 (centres undefined),inactive: 0.536%
4,CCCC1OP(=O)(Nc2ccccc2)OCC1CC (centres undefined),inactive: -4.52%
5,Cc1nn(-c2ccccc2)c2c1P(=O)(N1CCOCC1)N(C)C(c1ccccc1)=N2 (centres undefined),inactive: 3.01%
6,Cc1ccc(C(=O)OC2CN3CCC2CC3)cc1 (centres undefined),inactive: 0.96%
7,CC1CCC(C(C)C)C(OP(=O)(Nc2ccccn2)c2ccccc2)C1 (centres undefined),inactive: -2.64%
8,CN(C(=O)Cc1ccc(Cl)c(Cl)c1)[C@@H]1CCCC[C@H]1N1CCCC1,inactive: 2.1%
9,CC(C)/C=N\N=C(\N)N[N+](=O)[O-],inactive: 0.842%
10,CC1(CBr)Cn2c(nc3ccccc3c2=O)S1 (centres undefined),inactive: -0.346%
11,COc1ccccc1CNC(=O)COC(=O)C(O)(c1ccccc1)c1ccccc1,inactive: -7.52%
12,Clc1n[nH]nc1-c1nn[nH][15n]1,inactive: -14.9%
13,CC(C)(C)C(=O)NC(Sc1ncccn1)C(Cl)(Cl)Cl (centres undefined),inactive: -1.01%
14,CCC1=CC2Cc3nc4ccc(Cl)cc4c(N)c3C(C1)C2 (centres undefined),inactive: 0.862%
15,O=P1(Nc2ccccn2)COc2ccccc2OC1,inactive: 6.09%
16,CCOP(=O)(NC(=NC(C)c1ccccc1)NC(C)c1ccccc1)OCC (centres undefined),inactive: 5.68%
17,CCOP(=O)(Nc1ccc(C)cn1)OCC,inactive: -1.67%
18,c1nnnn1CCn1cnnn1,inactive: -10.7%
19,O=P(Nc1nccs1)(c1ccccc1)c1ccccc1,inactive: -0.721%
20,CC(C)C(=O)NC(Sc1ccccc1)C(Cl)(Cl)Cl (centres undefined),inactive: -7.69%
21,O=C(OC1CN2CCC1CC2)c1cccc(Cl)c1 (centres undefined),inactive: 1.23%
22,C(Cc1nn[nH]n1)Cc1nn[nH]n1,inactive: -1.8%
23,Nc1ccc([As](=O)(O)c2ccc([N+](=O)[O-])cc2)cc1,inactive: -5.38%
24,O=[As](O)(c1ccccc1)c1ccc(O)cc1,inactive: 2.33%
25,CC(=O)NC(SC(=S)N(C)C)C(Cl)(Cl)Cl (centres undefined),inactive: -0.697%
26,O=[N+]([O-])c1ncn(CCn2cnc([N+](=O)[O-])n2)n1,inactive: -6.22%
27,O=[N+]([O-])c1ccc(O)c(/C=N/Nc2ccc([N+](=O)[O-])cc2[N+](=O)[O-])c1,inactive: -8.49%
28,O=P(Nc1nc2ccccc2s1)(c1ccccc1)c1ccccc1,inactive: 0.567%
29,C[C@H]1OP(=O)(Oc2ccccc2)[C@H](O)[C@H](O)[C@H]1N=[N+]=[N-] (some centres undefined),inactive: -0.618%
